Test results taken from PMC10583824, “The rational design of ARUK2007145, a dual inhibitor of the α and γ isoforms of the lipid kinase phosphatidylinositol 5-phosphate 4-kinase (PI5P4K)” (RSC Medicinal Chemistry, 2023).

Target: T1, PI5P4Kγ+ (Homo sapiens, UniProt Q8TBX8, D138G/D197E/E133P/E135D/E153T/E196G/G139A/N195G/S132L/S134N)
T1 sequence (Q8TBX8 with tags, fused parts or gaps INS131LPN/S132D/E133S/S134Q/E135A/G136R/D138G/G139A/E153T/N195G/E196G/D197E): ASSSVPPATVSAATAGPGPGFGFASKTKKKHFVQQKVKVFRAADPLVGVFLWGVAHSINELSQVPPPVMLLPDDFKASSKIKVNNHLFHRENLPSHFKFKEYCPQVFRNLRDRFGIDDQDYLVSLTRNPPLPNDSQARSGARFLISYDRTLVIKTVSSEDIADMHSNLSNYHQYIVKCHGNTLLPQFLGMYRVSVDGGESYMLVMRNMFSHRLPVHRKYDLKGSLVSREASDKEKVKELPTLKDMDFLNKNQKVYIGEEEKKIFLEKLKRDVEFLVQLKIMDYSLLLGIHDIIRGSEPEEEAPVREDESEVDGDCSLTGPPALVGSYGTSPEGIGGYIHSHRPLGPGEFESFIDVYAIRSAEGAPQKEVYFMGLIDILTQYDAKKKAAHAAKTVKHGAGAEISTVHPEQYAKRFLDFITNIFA
Test: biochemical
Conditions: PI5P4Kγ+ pIC50, ADP-Glo; footnote a: inconsistent replicates, value shown is upper limit

Q: `COc1ccc(Nc2ncnc3c2ccn3-c2ccc(C)c(C)c2)cc1Cl` [Compound 3, reference compound] was tested. Which IC50 did it give?
A: > 50.1 µM
